Bioassay records deposited in PubChem by National Center for Advancing Translational Sciences (NCATS).
The list is not random: actives were taken first. Their share in the collection is about 2.3%.
A549 viability: kills or reduces viability of A549 cells in Nrf2 counter-screen | A549 ARE-Fluc cells, CellTiter-Fluor viability, 18-24 h | Potency, µM (titrated, usually from 46 µM), for inactives: top-dose activity change, negative = cytotoxicity, most hits filed as inhibitors | actives 0.16% (n = 390,000); further: potency means the concentration at half of the fitted maximal effect; on the % scale 0 is the no-effect control and ±100 the full control effect
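A549 ARE_Fluc cells in 5% FBS OPTI-MEM were exposed to compounds in concentration-response for 18-24 h at 37 deg C. Viability was read by CellTiter-Fluor fluorescence (Ex 405/Em 525) after 30 min, before the luciferase read.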
miR-21 FLuc: miR-21 reporter, rising signal | AID 2288 | HeLa miR-21 FLuc reporter, luciferase, 48 h | 340,000 tested, under 10 active | Potency, µM (titrated, usually from 38.3 µM), for the others: at the top dose reporter change, positive = more light; active = well fitted rising curve with a large enough effect; inconclusive = small, poorly fitted or top-dose-only effect; inactive = no such curve, though single readings can be large or run the other way;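 also: % of control where 0% means no effect; miR-21 action dims this reporter so a rising signal means less miR-21 action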
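HeLa cells stably expressing CMV-driven firefly luciferase with a downstream miR-21 binding sequence, endogenously expressing miR-21, were treated with titrations (up to about 40uM final) for 48 hours at 37 degree Celsius. Luciferase luminescence was read after lysis.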
Glioma ERSR ind: inducers of ER stress response in human glioma cells; AID 602332; actives 0.02% (n = 420,000); Potency, µM, inactives show at the top dose activation, actives largely listed as activators; U87-MG GRP78 promoter luciferase reporter, 16 h; further: potency means the concentration at half of the fitted maximal effect; series mostly up to about 76 µM; % of control where 0% means no effect; nearly all actives have a fitted effect of over 35% in size
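Stably transfected U87-MG glioma cells carrying a GRP78-based luciferase sensor; 16 h compound incubation. Luminescence end-point read 10 min after Bright-Glo addition at room temperature.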
Nrf2 block: inhibitors of Nrf2 signaling; A549 ARE-Fluc reporter, luciferase luminescence, 18-24 h; Potency, µM (series often up to 46 µM), inactives show at the top dose activity change, negative = inhibition, most hits filed as inhibitors; actives 2.1% (n = 360,000); AID 504444; further: potency means the concentration at half of the fitted maximal effect; on the % scale 0 is the no-effect control and ±100 the full control effect; nearly all actives have a fitted effect of over 60% in size
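Two sequential reads on A549 ARE_Fluc cells exposed to compound for 18-24 h: a CellTiter-Fluor fluorescence read for viability, then a luciferase luminescence read for Nrf2/ARE activity.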
Nrf2 ARE act: activators of Nrf2 (ARE) signaling | AID 624171 | AREc32 ARE-luciferase reporter (MCF7-derived line), luminescence, 24 h | actives 0.31% (n = 410,000) | Potency, µM (highest dose often 46.1 µM), inactives show top-dose activation, actives largely listed as activators; further: potency means the concentration at half of the fitted maximal effect; % of control where 0% means no effect; nearly all actives have a fitted effect of over 65% in size
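For detection, Steady-Glo was added and plates sat 30 min at RT; before that, AREc32_Fluc cells grown overnight in OPTI-MEM/5% FBS had been treated with 23 nL compound for 24 hr at 37 deg C.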
Mito fusion yeast: inhibitors of mitochondrial division or activators of mitochondrial fusion. Potency, µM (doses to about 46.1 µM), for the others: top-dose growth rescue (activation), usual class: activators. actives 0.23% (n = 320,000). S. cerevisiae fusion-defective mutant growth rescue, CellTiterGlo 48 h; further: potency means the concentration at half of the fitted maximal effect; % of control where 0% means no effect; nearly all actives have a fitted effect of over 45% in size
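S. cerevisiae fusion-defective temperature-sensitive mutants (e.g. fzo1-1, mgm1-5) grown 48 h at 37C in YPEG (ethanol/glycerol non-fermentable) medium with 23 nl compound per well; growth rescue read as CellTiterGlo luminescence.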
Starred values were filed as active, the others as inactive. Unless noted, the call rests on the fitted dose curve; in most records, active means well fitted curve in the direction sought with a large enough effect; inconclusive means small, poorly fitted or top-dose-only effect, or another doubt; inactive means no such curve, though single readings can be large; an effect the other way counts as inactive or inconclusive.

What do the screens show for `Cc1ccc(Cl)cc1NC1=C/C(=N\S(=O)(=O)c2cccs2)c2ccccc2C1=O`?
A549 viability: inconclusive; miR-21 FLuc: inconclusive; Glioma ERSR ind: -13.4%; Nrf2 block: 16.4µM*; Nrf2 ARE act: -2.9%; Mito fusion yeast: -9.5%

Results for Cc1ccc(NC2=C/C(=N\S(=O)(=O)c3cccs3)c3ccccc3C2=O)c(C)c1 ?
A549 viability: 18.4µM*; miR-21 FLuc: inconclusive; Glioma ERSR ind: -12.1%; Nrf2 block: inconclusive; Nrf2 ARE act: -2.3%; Mito fusion yeast: -16.5%

How did COc1ccc(NC(=O)c2cccc(S(=O)(=O)N3CCN(c4ccccc4)CC3)c2)c(OC)c1 do in these assays?
A549 viability: 5.6%; Glioma ERSR ind: -1.4%; Nrf2 block: inconclusive; Nrf2 ARE act: -0.5%; Mito fusion yeast: -1.6%

Results for N#Cc1ccccc1NC(=O)CN1C(=O)NC2(CCCC2)C1=O ?
A549 viability: -0.1%; miR-21 FLuc: 6.3%; Glioma ERSR ind: -2.1%; Nrf2 block: 24.2%; Nrf2 ARE act: 5.5%; Mito fusion yeast: -2.2%

What do the screens show for `CCOC(=O)c1ccc(N2CN=C3SCC(=O)N3C2)cc1`?
A549 viability: -4.1%; miR-21 FLuc: -21.8%; Glioma ERSR ind: -4.5%; Nrf2 block: inconclusive; Nrf2 ARE act: 2.5%; Mito fusion yeast: -2.2%

How did CC(C)C(=O)Nc1cccc(NC(=O)c2cccc([N+](=O)[O-])c2)c1 do in these assays?
A549 viability: 0.3%; miR-21 FLuc: 0.6%; Glioma ERSR ind: -3.2%; Nrf2 block: -3.8%; Nrf2 ARE act: 0.0%; Mito fusion yeast: -3.9%

Results for COc1ccc(C(=O)C(C)Oc2cccc(NC(=O)c3cccc([N+](=O)[O-])c3)c2)cc1 (stereo not drawn) ?
A549 viability: -9.1%; miR-21 FLuc: 0.7%; Glioma ERSR ind: 5.4%; Nrf2 block: 25.9µM*; Nrf2 ARE act: 0.0%; Mito fusion yeast: 5.2%

What do the screens show for `CCOc1c(Cl)cc(/C=N/NC(N)=S)cc1OC`?
A549 viability: 5.3%; miR-21 FLuc: -1.1%; Glioma ERSR ind: 0.4%; Nrf2 block: 20.6µM*; Nrf2 ARE act: 5.8%; Mito fusion yeast: 0.1%

How did Cc1cccc(C)c1NC(=O)CN(C)C(=O)CCC(=O)N1CCOCC1 do in these assays?
A549 viability: -5.3%; Glioma ERSR ind: -3.0%; Nrf2 block: -2.8%; Nrf2 ARE act: -1.0%

How did CC(O)CNc1nc2sc3c(c2c(=O)n1CCc1ccccc1)CCCCC3 (stereo not drawn) do in these assays?
A549 viability: -0.1%; miR-21 FLuc: -20.8%; Glioma ERSR ind: 3.1%; Nrf2 block: 31.3%; Nrf2 ARE act: 4.3%; Mito fusion yeast: 20µM*

What do the screens show for `CSc1ccc(CN2CCCC(N3CCN(c4ccccc4)CC3)C2)cc1` (stereo not drawn)?
A549 viability: 11.5%; miR-21 FLuc: -0.1%; Glioma ERSR ind: -3.7%; Nrf2 block: -13.1%; Nrf2 ARE act: 2.0%; Mito fusion yeast: -8.6%

How did Cc1nnsc1S(=O)(=O)c1ccccc1 do in these assays?
A549 viability: -0.3%; miR-21 FLuc: 0.2%; Glioma ERSR ind: -3.8%; Nrf2 block: 8.2µM*; Nrf2 ARE act: 1.4%; Mito fusion yeast: -2.8%

Results for Cc1ccc(NC(=S)NC2CCSc3ccccc32)cc1C (stereo not drawn) ?
A549 viability: -21.6%; miR-21 FLuc: 2.1%; Glioma ERSR ind: -1.7%; Nrf2 block: 23.1µM*; Nrf2 ARE act: 0.4%; Mito fusion yeast: -10.7%

Results for COC(=O)c1ccc(C(=O)NC2CCSc3ccccc32)cc1 (stereo not drawn) ?
A549 viability: 5.1%; miR-21 FLuc: -18.1%; Glioma ERSR ind: 1.2%; Nrf2 block: 10.8%; Nrf2 ARE act: -0.1%; Mito fusion yeast: 4.9%

What do the screens show for `COc1ccc(N2CC(C(=O)Nc3nnc(SCC(=O)NCc4ccco4)s3)CC2=O)cc1` (stereo not drawn)?
A549 viability: 0.3%; miR-21 FLuc: -2.4%; Glioma ERSR ind: 0.7%; Nrf2 block: 1.6%; Nrf2 ARE act: 2.8%; Mito fusion yeast: -1.9%

What do the screens show for `CCOC(=O)N(C)c1c(CC)nc2c(OCc3cccc(Cl)c3)cccn12`?
Glioma ERSR ind: 1.4%; Nrf2 ARE act: 3.4%

What do the screens show for `COc1ccc(OC)c(/C=C2\SC(N3CCCC(C)C3)=NC2=O)c1` (stereo not drawn)?
A549 viability: 9.3%; miR-21 FLuc: -18.6%; Glioma ERSR ind: -5.1%; Nrf2 block: 16.1%; Nrf2 ARE act: 12.9%; Mito fusion yeast: 12.6µM*

How did COc1ccc(/C=C2\SC(N3CCCCC3)=NC2=O)cc1OC do in these assays?
A549 viability: 1.7%; miR-21 FLuc: -26.4%; Glioma ERSR ind: 3.6%; Nrf2 block: 8.7%; Nrf2 ARE act: 11.9%; Mito fusion yeast: -4.4%

How did CCOC(=O)c1c(NC(=O)CN2CCN(c3cccc(Cl)c3)CC2)sc(C)c1C do in these assays?
A549 viability: -1.8%; Glioma ERSR ind: -1.0%; Nrf2 block: -2.6%; Nrf2 ARE act: -0.6%

Results for CC1=C(C(=O)OCc2ccc3c(c2)OCO3)C(c2ccccc2)NC(=O)N1 (stereo not drawn) ?
A549 viability: -2.0%; miR-21 FLuc: inconclusive; Glioma ERSR ind: -4.9%; Nrf2 block: 8.2µM*; Nrf2 ARE act: -0.3%; Mito fusion yeast: 0.6%

In the list so far, 2 contain a nitro group on carbon.
How did CC(C)C(=O)Nc1cccc(NC(=O)c2cccc([N+](=O)[O-])c2)c1 do in these assays?
A549 viability: 0.3%; miR-21 FLuc: 0.6%; Glioma ERSR ind: -3.2%; Nrf2 block: -3.8%; Nrf2 ARE act: 0.0%; Mito fusion yeast: -3.9%

Results for COc1ccc(C(=O)C(C)Oc2cccc(NC(=O)c3cccc([N+](=O)[O-])c3)c2)cc1 (stereo not drawn) ?
A549 viability: -9.1%; miR-21 FLuc: 0.7%; Glioma ERSR ind: 5.4%; Nrf2 block: 25.9µM*; Nrf2 ARE act: 0.0%; Mito fusion yeast: 5.2%

Following part
How did CC1=C(C(=O)OCc2ccc3c(c2)OCO3)C(c2ccccc2OCc2ccccc2)NC(=O)N1 (stereo not drawn) do in these assays?
A549 viability: -20.7%; miR-21 FLuc: 23.5%; Glioma ERSR ind: -2.3%; Nrf2 block: 13µM*; Nrf2 ARE act: -0.3%; Mito fusion yeast: 8.1%

What do the screens show for `CCCOc1ccccc1C1NC(=O)NC(C)=C1C(=O)OCc1ccccc1` (stereo not drawn)?
A549 viability: inconclusive; miR-21 FLuc: 0.4%; Glioma ERSR ind: -2.7%; Nrf2 block: 10.3µM*; Nrf2 ARE act: 0.1%; Mito fusion yeast: 28.6%

How did CCCOc1ccccc1C1NC(=O)NC(C)=C1C(=O)OCCOC (stereo not drawn) do in these assays?
A549 viability: -0.9%; miR-21 FLuc: -0.5%; Glioma ERSR ind: -5.5%; Nrf2 block: 4.0%; Nrf2 ARE act: -0.6%; Mito fusion yeast: 1.8%

Results for CC1=C(C(=O)OCc2ccc3c(c2)OCO3)C(c2ccc(O)c([N+](=O)[O-])c2)NC(=O)N1 (stereo not drawn) ?
A549 viability: -9.0%; miR-21 FLuc: 24.5%; Glioma ERSR ind: -6.8%; Nrf2 block: inconclusive; Nrf2 ARE act: 0.3%; Mito fusion yeast: 4.7%
